Earlier results as cited in patent US20260345555A1, “Compositions and Methods for Protecting Salivary Glands from Off-Target Radiation Damage” (University of Rochester, priority 2022, published 2026).

Details: in vivo; cited from earlier work

COc1ccc2[nH]cc(CCNC(C)=O)c2c1 [Melatonin]
bioavailability: poor bioavailability
